Literature values in patent publication US7045339B2, “Electron donors for chlorinated solvent source area bioremediation” (SRP Technologies, Inc., priority 2002, dated 2006).

Details: surfactant concentration 1%; cited from earlier work

Nonylphenol ethoxylate
PCE Solubilized: 1,300 mg/l
